Patent US4029731A, “Aminophenyltetralin compounds” (Pfizer Inc., priority 1976, dated 1977)
Counter-ions that a name gives are not always drawn.

Tested on: norepinephrine uptake into both rat heart and rat brain; reserpine hypothermia in mice
Test: Antidepressant activity (norepinephrine uptake into rat heart and rat brain in vivo; reversal of reserpine hypothermia in mice)
Details: for degree of antidepressant activity: base and hydrochloride acid addition salts
Procedure: The activity of the compounds of the present invention as antidepressants is determined by a study of their ability to supress norepinephrine uptake into both rat heart and rat brain (in vivo), together with a determination of their ability to bring about a reversal of reserpine hypothermia in mice.

| Compound | degree of antidepressant activity | drug potency as antidepressant compared with imipramine and desmethylimipramine (norepinephrine uptake into rat heart and rat brain in vivo, reserpine hypothermia in mice) |
| --- | --- | --- |
| CN[C@@H]1CC[C@@H](c2ccccc2)c2ccccc21 (relative stereo) [trans-dl-N-methyl-4-phenyl-1,2,3,4-tetrahydro-1-naphthylamine] | markedly high degree of antidepressant activity | – |
| CN[C@@H]1CC[C@@H](c2ccccc2)c2ccccc21 [Trans-d-isomer of Example III, trans-d-N-methyl-4-phenyl-1,2,3,4-tetrahydro-1-naphthylamine as the hydrochloride] | – | roughly equivalent to both impramine and desmethylimpramine |
| CN[C@@H]1CC[C@@H](c2ccccc2)c2ccccc21 [trans-d-N-methyl-4-phenyl-1,2,3,4-tetrahydro-1-naphthylamine] | markedly high degree of antidepressant activity | – |
